Data published in patent US20230256108A1, “A DRUG CONJUGATE AND APPLICATIONS THEREOF” (GENEQUANTUM HEALTHCARE (SUZHOU) CO., LTD., priority 2019, published 2023).

Biological target: T1, ErbB2/Her2 receptor on the cell surface (Homo sapiens, UniProt P04626)
T1 construct: HER2 high-expressing human breast cancer cells HCC1954, SK-BR-3, and HER2 low-expressing cells MCF7 were made into single cell suspensions; HTB-30 (SK-BR-3); HTB-22 (MCF7); host or cells: HCC1954, SK-BR-3, MCF7
Test: FACS affinity to cell surface ErbB2/Her2
Type: binding
Conditions: 6.25 nM; HCC1954, SK-BR-3 (HER2 high) and MCF7 (HER2 low) cells; compared with Pertuzumab
Procedure: 1) HER2 high-expressing human breast cancer cells HCC1954, SK-BR-3, and HER2 low-expressing cells MCF7 were made into single cell suspensions. 5×10^5 cells are used for each test. 6.25 nM Pertuzumab, P-LCCTL-HC, and DG102 were added respectively. Incubation was conducted for 60 min at 4° C. Washing was conducted with two repeats: adding 1 ml of PBS washing solution containing 1% BSA, conducting centrifuge at 1000 rpm for 5 min, removing the supernatant.
2) To cells incubated with Pertuzumab, P-LCCTL-HC or DG102, 100 µl diluted solution of FITC-goat anti-human IgG antibody was added, respectively. Incubation was conducted for 30 min at 4° C. in the dark. Washing was conducted with two repeats: adding 1 ml of washing solution, conducting centrifuge at 1000 rpm for 5 min, removing the supernatant. The cells were resuspended in 500 µl PBS, passed through a 300 mesh screen, stored on ice in the dark. FACS (fluorescence-activated cell sorting) assay were performed on CytoFLEX S (FIG. 2 to FIG. 4).

affinity to the ErbB2/Her2 receptor on the cell surface (FACS): do not show significant difference
Substance: P-LCCTL-HC: based on Pertuzumab, GALPETGG introduced at the C-terminal of the light chain (SEQ ID NO: 1, 2)
